The source of these data is US6569897B1, “Alkenyldiarylmethane non-nucleoside HIV-1 reverse transcriptase inhibitors” (priority 1998, dated 2003).

One assay has as its system HIV-1 proviral DNA. The assay can be described thus: PCR-based analysis of proviral DNA formation. Format: cell-based.
Assay [1] relates to latently HIV-1 infected U1 cells. The assay can be described thus: Virus production from latently HIV-1 infected U1 cells induced with TNF-α. The assay is classed as cell-based.

For `COC(=O)CCCC=C(c1cc(Cl)c(OC)c(C(=O)OC)c1)c1cc(Cl)c(OC)c(C(=O)OC)c1` [Compound 22, Methyl 3′,3″-Dichloro-4′,4″-dimethoxy-5,5″-bis(methoxycarbonyl)-6,6-diphenylhexenoate], in the assay on HIV-1 proviral DNA, the “formation of proviral DNA” value is recorded as “prevented formation of proviral DNA”. Besides, the “virus production from U1 cells” value in assay [1] is recorded as “no effect on virus production”.
